# System: Nc1ncnc2c1ncn2[C@@H]1O[C@H](COP(=O)(O)OP(=O)(O)OP(=O)(O)O)[C@@H](O)[C@H]1O
# Test: purified protein
# Conditions: presumably with KanA co-substrate (100 μM in this experiment), 50 mM Tris-HCl pH 7.5, 40 mM KCl, 1 mM free MgCl2, 25 °C, ATP as MgATP
substance,measurement,value
APH(3′)-IIIa (aminoglycoside phosphotransferase(3′)-IIIa) (Enterococcus faecalis),Km,10 µM

# Source: PMC3510435 (Febs Letters, 2012)
